Laboratory results: article PMC9067401 (Genes & Development, 2022)

Biological target: histone H4([…]), yeast (yeast)
Experiment: crystal structure

B1: Aspergillus fumigatus Asf1 conserved core (AfAsf1, residues 1–154) (domain or fragment)
chain: MSVVSLLGVKIVNNPAPFLAPYQFEITFECLEQLQKDLEWKLTYVGSATSSEYDQELDSLLVGPIPVGVNKFLFEADAPDLKRIPTSEILGVTVILLTCSYDGREFVRVGYYVNNEYDSEELTQDPPAKPIIERIRRNILAEKPRVTRFAIKWD
binding result: binds
